# Experimental logP (octanol/water) values from OPERA 2.9

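The OPERA project collected these measurements from public sources as training and test data for property models. The files give a single number for a compound and property, which may rest on several reports. Method and conditions are not stated for these values. A value may pool stereoisomers or salt forms, and the file does not say which form was measured. Some entries may be limits or estimates that an upstream database listed as plain numbers.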

The octanol-water partition coefficient is given as log10; larger values mean a more lipophilic compound. "n/a" marks a cell with nothing listed here. The databases behind each value are named after "via".

| SMILES | name | logP (octanol/water) | via |
|---|---|---|---|
| C[N+](C)(C)CC1CO1.[Cl-] (stereo unspecified) | Glycidyl trimethylammonium chloride | -1.3 | eChemPortal |
| Clc1cc(Cl)c(-c2ccc(Cl)c(Cl)c2)c(Cl)c1 | 2,3',4,4',6-Pentachlorobiphenyl | 6.58 | OCHEM |
| C=C(C(F)(F)F)C(F)(F)F | 1,1-Bis(trifluoromethyl)ethene | 2.46 | eChemPortal |
| COC(=O)CCl | Methyl chloroacetate | 0.76 | PubChem |
| Cc1ccc(C[N+](C)(C)C)o1.[I-] | N,N,N-Trimethyl(5-methylfuran-2-yl)methanaminium iodide | -1.85 | OCHEM |
| CCCC[N+](CCCC)(CCCC)CCCC.[Br-] | Tetrabutylammonium bromide | 0.839 | eChemPortal |
| COc1c(C[C@@H](C)OC(=O)Oc2ccc(O)cc2)c2c3c(C[C@@H](C)OC(=O)c4ccccc4)c(OC)c(=O)c4c(O)cc(OC)c(c5c(OC)cc(O)c(c1=O)c52)c43 | n/a | 7.65 | PubChem |
| Cc1cccc(C[N+](C)(C)C)c1.[Br-] | N,N,N-Trimethyl(3-methylphenyl)methanaminium bromide | -1.99 | OCHEM |
| CC1NCCOC1c1ccccc1 (stereo unspecified) | Phenmetrazine | 1.7 | PubChem |
| O=C(c1ccc(Cl)cc1)c1ccccn1 | (4-Chlorophenyl) 2-pyridyl ketone | 2.61 | OCHEM |
| Cc1cc(N)ccc1N | 2-Methyl-1,4-benzenediamine | 0.16 | PubChem, eChemPortal |
| CC(C)OC(=O)NP(N)(N)=O | Carbamic acid, (diaminophosphinyl)-, 1-methylethyl ester | 0.5 | eChemPortal |
| N#CSCSC#N | Methylene bis(thiocyanate) | 0.34 | OCHEM, eChemPortal |
| ClC(Cl)c1ccccc1 | Benzal chloride | 3.22 | eChemPortal |
| CC[C@@H](CO)NC(=O)[C@@H]1C=C2c3cccc4[nH]cc(c34)C[C@H]2N(C)C1 | Methylergonovine | 1.2 | PubChem |
| CC(F)(F)Cl | 1-Chloro-1,1-difluoroethane | 1.63 | OCHEM, PubChem |
| C=C(C)c1ccc(O)cc1 | 4-(Prop-1-en-2-yl)phenol | 2.9 | OCHEM |
| CN(CCO)CCO | N-Methyldiethanolamine | -1.08 | PubChem, eChemPortal |
| COc1ccc(CC(C)=O)cc1 | 2-Propanone, 1-(4-methoxyphenyl)- | 1.9 | eChemPortal |
| Nc1ccc2c(c1)[C@@]13CCN4CC5=CCOC6CC(=O)N2C1[C@H]6[C@H]5C[C@H]43 (stereo not given in full) | 2-Aminostrychnidin-10-one | 0.54 | OCHEM |
| C[C@@H](O)CCO | (3R)-butane-1,3-diol | -0.9 | eChemPortal |
| CC[n+]1c(-c2ccccc2)c2cc(N)ccc2c2ccc(N)cc21.[Br-] | Ethidium bromide | -1.1 | PubChem |
| Cc1ccc(O)c(Cl)c1 | 2-Chloro-4-methylphenol | 2.65 | OCHEM |
| NC1=Nc2ccc(Cl)cc2C(c2ccccc2)=[N+]([O-])C1 | 7-Chloro-2-amino-5-phenyl-3H-1,4-benzodiazepine 4-oxide | 2.13 | OCHEM |
| CC1(C)C(=O)NC(=S)NC1=O | 5,5-Dimethyl-2-thiobarbituric acid | 0.5 | OCHEM |
| CNC(=O)C(C#N)=c1[nH]c(=C2C(=O)NC(=O)NC2=O)c2ccccc12 | Pigment yellow 185 | 1.4 | eChemPortal |
| CC1=NCCc2c1[nH]c1cc(O)ccc21 | Harmalol | 2.19 | OCHEM |
| COP(=S)(S)OC | O,O-Dimethyldithiophosphate | -0.7 | eChemPortal |
| CC(C)(C)OOC(C)(C)C | Di-tert-butyl peroxide | 3.2 | PubChem, eChemPortal |
| CC(N=C=S)c1ccccc1 (stereo unspecified) | (1-Isothiocyanatoethyl)benzene | 3.46 | OCHEM |
| Oc1ccc(Cl)cc1O | 4-Chlorocatechol | 1.68 | OCHEM |
| CC1OC(C[N+](C)(C)C)CC1O.[I-] (stereo unspecified) | n/a | -2.95 | OCHEM |
| N#CNC1=NCCS1 | 2-Cyanoimino-1,3-thiazolidine | -0.06 | eChemPortal |

Excerpt, the opening 4 entries:

| SMILES | name | logP (octanol/water) | via |
|---|---|---|---|
| C[N+](C)(C)CC1CO1.[Cl-] (stereo unspecified) | Glycidyl trimethylammonium chloride | -1.3 | eChemPortal |
| Clc1cc(Cl)c(-c2ccc(Cl)c(Cl)c2)c(Cl)c1 | 2,3',4,4',6-Pentachlorobiphenyl | 6.58 | OCHEM |
| C=C(C(F)(F)F)C(F)(F)F | 1,1-Bis(trifluoromethyl)ethene | 2.46 | eChemPortal |
| COC(=O)CCl | Methyl chloroacetate | 0.76 | PubChem |

Values as listed in the OPERA 2.9 repository of K. Mansouri.